Measured values published in patent US20250197499A1 (STEALTH IO, published 2025).

How the values were obtained:
[1] = target: T1, Recombinant human PD-L1-His tag (ACROBiosystems, #PD1-H5229) (human); assay: Octet RED96e; PD-L1-His loaded at 10 µg/ml on HIS1K sensor; sample 117,6 nM
T1 construct: Bought protein; also called sPD-L1; human PD-L1-His tag protein; not shown: His tag
Experimental: (§1) FIG. 3a is a graph of Octet binding studies on sPD-L1. Recombinant human PD-L1-His tag (ACROBiosystems, #PD1-H5229) was loaded to His-sensor (HIS1K (Anti-Penta-His)) at 10 μg/ml and the binding of each construct was evaluated by Octet RED96e.
(§2) FIG. 3c is a graph depicting the KD values of anti-CD28/sPD-1 constructs on human PD-L1-His tag protein by Octet RED96e. The equilibrium dissociation constant (KD) is calculated as the ratio koff/kₒₙ (with koff:dissociation rates, and kₒₙ:association rates).
(§3) Anti-CD28/sPD-1 antibody fusion constructs were assessed for their ability to bind PD-1 ligands, PD-L1 and PD-L2 by Octet RED96e. Recombinant human PD-L1-His tag (ACROBiosystems, #PD1-H5229) or recombinant human PD-L2-His tag (ACROBiosystems, #PD2-H5220) were loaded to His-sensor (HIS1 K (Anti-Penta-His)) at 10 μg/ml. […] FIG. 3c is a summary of affinity (measured as Kd, M) for each construct on human PD-L1. […] FIG. 4c is a summary of affinity (measured as Kd, M) for each construct on human PD-L2.

[2] = target: T2, Recombinant human PD-L2-His tag (ACROBiosystems, #PD2-H5220) (human, UniProt Q9BQ51 20-219); assay: Octet RED96e; PD-L2-His loaded at 10 µg/ml on HIS1K sensor; sample 588,2 nM
T2 construct: Bought protein; also called sPD-L2; human PD-L2-His tag protein; not shown: His tag
T2 sequence (looked up): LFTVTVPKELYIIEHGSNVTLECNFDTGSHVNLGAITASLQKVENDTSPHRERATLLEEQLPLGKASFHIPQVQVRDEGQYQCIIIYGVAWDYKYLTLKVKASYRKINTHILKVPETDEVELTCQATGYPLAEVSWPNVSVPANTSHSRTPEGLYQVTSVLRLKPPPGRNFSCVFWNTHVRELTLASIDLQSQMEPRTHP
Experimental: (§4) FIG. 4a is a graph of Octet binding studies on sPD-L2. Recombinant human PD-L2-His tag (ACROBiosystems, #PD2-H5220) was loaded to His-sensor (HIS1 K (Anti-Penta-His)) at 10 μg/ml and the binding of each construct was evaluated by Octet RED96e.
(§5) FIG. 4c is a graph depicting the KD values of anti-CD28/sPD-1 constructs on human PD-L2-His tag protein by Octet RED96e. The equilibrium dissociation constant (KD) is calculated as the ratio koff/kₒₙ (with koff:dissociation rates, and kₒₙ:association rates).
as §3

[3] = target: T3, Recombinant human sCD28 Fc-fusion protein (PeproTech, #310-34) (human, UniProt P10747, in part); assay: Octet RED96e; sCD28 Fc-fusion loaded at 2,5 µg/ml on protA sensor; sample 117,6 nM; control without CD28-binding Fab
T3 construct: Bought protein; also called soluble CD28; not shown: Fc part of the bought fusion; not described
Experimental: (§6) FIG. 5a is a graph of Octet binding studies on sCD28. Recombinant human sCD28 Fc-fusion protein (PeproTech, #310-34) was loaded to protA sensor at 2.5 μg/ml and the binding of each construct was evaluated by Octet RED96e.
(§7) FIG. 5c is a graph depicting the KD values of anti-CD28/sPD-1 constructs on human sCD28 Fc-fusion protein by Octet RED96e. The equilibrium dissociation constant (KD) is calculated as the ratio koff/kₒₙ (with koff:dissociation rates, and kₒₙ:association rates).
(§8) Anti-CD28/sPD-1 antibody fusion constructs were assessed for their ability to bind CD28 by Octet RED96e. Recombinant human sCD28 Fc-fusion protein (PeproTech, #310-34) was loaded to protA sensor at 2.5 μg/ml. […] FIG. 5c is a summary of affinity (measured as Kd, M) for each construct on human CD28.

[4] = target: T3, Recombinant human sCD28 Fc-fusion …; assay: Octet RED96e; sCD28 Fc-fusion loaded at 2,5 µg/ml on protA sensor; sample 588,2 nM; control without CD28-binding Fab
Experimental: as §6, §7, §8

[5] = target: T2, Recombinant human PD-L2-His tag …; assay: Octet RED96e; PD-L2-His loaded at 10 µg/ml on HIS1K sensor; sample 117,6 nM
Experimental: as §4, §5, §3

[6] = target: T1, Recombinant human PD-L1-His tag …; assay: Octet RED96e; PD-L1-His loaded at 10 µg/ml on HIS1K sensor; sample 588,2 nM
Experimental: as §1, §2, §3

B1: nonvalent (or dummy) Fc/sPD-1 wt (Fc fusion)
chain: DKTHTCPPCPAPEFEGGPSVFLFPPKPKDTLMISRTPEVTCVVVDVSHEDPEVKFNWYVDGVEVHNAKTKPREEQYNSTYRVVSVLTVLHQDWLNGKEYKCKVSNKALPASIEKTISKAKGQPREPQVYTLPPSREEMTKNQVSLTCLVKGFYPSDIAVEWESNGQPENNYKTTPPVLDSDGSFFLYSKLTVDKSRWQQGNVFSCSVMHEALHNHYTQKSLSLSPGGGGSGGGGSGGGGSLDSPDRPWNPPTFSPALLVVTEGDNATFTCSFSNTSESFVLNWYRMSPSNQTDKLAAFPEDRSQPGQDCRFRVTQLPNGRDFHMSVVRARRNDSGTYLCGAISLAPKAQIKESLRAELRVTERRAEVPTAHPSPSPRPAGQFQ
notes: also called Fc/sPD-1 wild type; Non-valent Fc/sPD-1
Work on B1 yielded a Kd [1] of 33.9 nM, a koff [1] of 0.0145 s⁻¹ and a kon [1] of 428000 M⁻¹ s⁻¹. For the same binder, the Kd [2] was 34.7 nM, the koff [2] was 0.00328 s⁻¹ and the kon [2] was 94700 M⁻¹ s⁻¹. It also gave a Kd [3] of 57.1 nM, a koff [3] of 0.00105 s⁻¹ and a kon [3] of 18400 M⁻¹ s⁻¹. It also gave a Kd [4] of 47.6 nM, a koff [4] of 0.000285 s⁻¹ and a kon [4] of 5990 M⁻¹ s⁻¹. For the same binder, the Kd [5] was 15 nM, the koff [5] was 0.00311 s⁻¹ and the kon [5] was 207000 M⁻¹ s⁻¹. For the same binder, the Kd [6] was 56.8 nM, the koff [6] was 0.0151 s⁻¹ and the kon [6] was 266000 M⁻¹ s⁻¹.
